Results on five molecules are retold here after PubChem BioAssay AID526 (National Center for Advancing Translational Sciences (NCATS), 2006).

Each structure is given as a SMILES string. The list shows a part of the results. Some results for these compounds are left out of this collection, so the calls shown say nothing about other tests. Activity calls are given as the source filed them. The call rests on the fitted dose curve; in most records, active means well fitted activation curve with a large enough effect (not every such curve was filed as active); inconclusive means small, poorly fitted or top-dose-only effect, or another doubt; inactive means no such curve, though single readings can be large or run the other way.

This experiment in a line: Ubiquitin-GFP Assay. As to conditions: Ubiquitin-GFP reporter cells, proteasome inhibition, GFP fluorescence, untreated = 0%, 10 µM MG-132 = 100%; at 9.17 µM unless noted. The source says: NIH Chemical Genomics Center [NCGC]
NIH Molecular Libraries Screening Centers Network [MLSCN]
The ubiquitin-proteasome pathway is present within all eukaryotic cells and plays roles in normal cellular functions and disease-related dysfunction. Proteins are tagged with a poly-ubiquitin chain that targets them for the proteasome, a multimeric protease, that degrades the protein into peptides and free ubiquitin. The proteasome has a key role in regulating cell cycle and growth and is known to control the levels of cyclins and CDK inhibitors as well as tumor suppressor proteins. Additionally, the activation of NF- B is controlled by ubiquitin-labeling and degradation of the inhibitory protein I B . […] With this in mind, proteasome inhibitors such as MG-132 and PS-341 have been used to inhibit tumor cell growth.
A cellular assay for ubiquitin-proteasome function was used to find chemical probes of this pathway. The assay used an ubiquitin-GFP construct expressed in U2OS cells (BioImage). Under basal conditions little GFP can be detected as it is degraded by the proteasome. However, treatment of the cells with a proteasome inhibitor such as MG-132 results in a rise in GFP levels that can be detected in as little as four hours. We used the Acumen-Explorer laser plate cytometer having a 488 nm laser as an excitation light source to detect the GFP. Compounds were screened in 1536-well plates using qHTS with a concentration-titration series range that varied from 46 uM to 2.9 nM.
NCGC Assay Protocol Summary:
Cells (U20S ps 2042) expressing ubiquitin (G76V-GFP) were maintained in DMEM with Glutamax-1 and high glucose, 10% FBS, 1% (v/v) penicillin-streptomycin, 0.5 mg/mL Geneticin (G418). The cells were seeded in 1536-well plates using a solenoid-based dispenser at 700 cells/5ul in DMEM medium with Glutamax-1 and high glucose containing 0.5% FBS, w/o phenol red, 25 mM HEPES. The plates were incubated at 37 °C/5% CO2 overnight. Then 23 nl of MG-132 in DMSO was added to the control wells at a final concentration of 10 uM. Next, 23 nL of library compounds in DMSO were added to the sample wells. The plates were incubated for 4 hrs at 37 °C/5% CO2. Following this incubation the plates were read on the Acumen using a cell object definition of 15 to 100 um in width and depth and a window of Total Intensity of between 77,200 and 2,720,000 FLU to enumerate GFP-expressing cells.
The %Activity was determined from the basal and MG-132 treated control wells. %Activity was determined by normalizing to the difference in signal between basal cells (0% Activity) and cells incubated with 10 uM of the proteasome inhibitor MG-132 (100% Activity). Concentration-response curves were fitted to the signals arising from the GFP fluorescence.
Assay Protocol Summary Table
Sequence Parameter Value Description
2. Time O/N 37C incubation
4. Compound 23 nL Libraries (46 uM to 2.9 nM)
5. Time 4 hr 37C incubation
6. Detector Acumen Total Intensity, GFP fluorescence (488 ex/515 em)
Keywords: NIH Roadmap, MLSCN, MLI, MLSMR, BioImage, proteasome, ubiquitin-GFP, qHTS, NCGC
In the case of `CN(C)c1cccc(C(=O)NCC2(N(C)C)CCCCC2)c1`, the activation (GFP accumulation) is inactive: 1.92% [at 45.9 µM].
To `CN1CCC[C@H](OC(=O)[C@](O)(c2ccccc2)C2CCCC2)C1` belongs inactive: 8.72%; to `CN1CC[C@H](OC(=O)[C@](O)(c2ccccc2)C2CCCC2)C1`, inactive: -2.2%; to `O=C(OC1CN2CCC1CC2)C(CO)(c1ccccc1)c1ccccc1` (stereo not given), inactive: -3.09% [at 45.9 µM].
Turning to `C=C(C)C#C[C@@](O)(C(=O)OC1CCN(C)CC1)c1ccccc1`, the activation (GFP accumulation) is inactive: 7.03%.
